Values quoted from earlier work as cited in patent US20050220865A1, “Compressed composition comprising magnesium salt” (priority 2004, published 2005).

Settings: cited from earlier work

**Q.** What does the source list for magnesium gluconate [Mg Gluconate]?
**A.** USP 27/NF22 Solubility (USP 27/NF22 solubility term): Freely Soluble; Solubility in Neutral Water (neutral water): 16 g/100 mL
